The values that follow are results of earlier work, collected in article PMC5515969, “Effects of 31 FDA approved small-molecule kinase inhibitors on isolated rat liver mitochondria” (Archives of Toxicology, 2016).

The Cmax is the peak of the concentration-time curve.

The conditions of the series: human therapeutic Cmax at FDA recommended dosages; ref product labeling and drug approval packages at the official FDA website; cited from earlier work.

With `CS(=O)(=O)CCNCc1ccc(-c2ccc3ncnc(Nc4ccc(OCc5cccc(F)c5)c(Cl)c4)c3c2)o1` [Lapatinib], the Cmax was 4.18 µM.
